# Test results as given in US5298508A, “Irreversible inhibitors of adenosine receptors” (priority 1992, dated 1994).
# Amino acid sequences for entries named in this document (tags omitted).
# UniProt P25099, whole entry: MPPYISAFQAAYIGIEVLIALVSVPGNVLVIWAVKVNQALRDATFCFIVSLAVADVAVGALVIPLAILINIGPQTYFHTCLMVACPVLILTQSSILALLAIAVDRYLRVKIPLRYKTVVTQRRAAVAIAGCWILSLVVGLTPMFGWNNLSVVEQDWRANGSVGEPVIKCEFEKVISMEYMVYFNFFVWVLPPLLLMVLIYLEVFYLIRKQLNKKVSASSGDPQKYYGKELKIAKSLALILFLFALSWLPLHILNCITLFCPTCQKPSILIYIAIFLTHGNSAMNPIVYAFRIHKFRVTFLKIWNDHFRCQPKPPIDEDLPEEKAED
# Molecular target: T1, central A1 receptors (Rattus norvegicus, UniProt P25099)
# T1 construct: A1 -adenosine receptors in rat brain membranes; from tissue; host or cells: rat brain membranes
# Format: binding
# Details: [125I]APNEA, after treatment with p-DITC-XAC; same affinity as native receptors; read-out: KD-value of radioligand at remaining/native receptors
substance,measurement,value
"N^6 -(4aminophenylethyl)adenosine [[125I]APNEA, reference compound]",Kd,0.5 nM
